Values of other authors as cited in PMC3182250.

Target: hEag-1 CaM-binding site (Homo sapiens) (UniProt O95259)

For Calmodulin (from UniProt P0DP23), the Kd is given as > 0.1 µM.
